This note sets out measurements from PubChem BioAssay AID743282 (The Scripps Research Institute Molecular Screening Center, 2014).

Structures are written as SMILES. The entries are a selection whose mix differs from that of the whole data set. Calls of active or inactive are those of the source.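 The calls were made as follows: active = average inhibition above the solvent-only control mean plus 3 SD (cut at about 6% in these data); inactive = the rest.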

The test is described as follows: BODIPY product fluorescence quenching artefacts – biochemical, QFRET, 535nm, artefact control for HGIII-sPLA2 inhibitor project, confirmation (AID 743282).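 Also: 0% = DMSO with substrate plus product and 100% = DMSO with substrate alone.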 As to conditions: BODIPY FL product fluorescence interference, at 12.2 µM, stronger effect = higher value.
As to `O=[N+]([O-])c1cc(Oc2ccc([N+](=O)[O-])cc2C(F)(F)F)cc([N+](=O)[O-])c1`, the inhibition was inactive: 2.49%.
